Measurements published in US20090099157A1, “TETRAHYDRO-PYRAZOLO-PYRIDINE THIOETHER MODULATORS OF CATHEPSIN S” (priority 2007, published 2009).

Protein sequences, listed by entry. Tags and fused reporters are not part of them. Residues count along the entry.
UniProt P25774, 115-331: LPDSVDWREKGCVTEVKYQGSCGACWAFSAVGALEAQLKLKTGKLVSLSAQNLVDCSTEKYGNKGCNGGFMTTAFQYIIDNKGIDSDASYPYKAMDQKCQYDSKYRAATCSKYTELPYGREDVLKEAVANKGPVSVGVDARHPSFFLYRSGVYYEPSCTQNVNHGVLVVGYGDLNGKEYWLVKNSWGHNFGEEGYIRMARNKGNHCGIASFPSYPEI

target: Recombinant human cathepsin S (CatS) (Homo sapiens, UniProt P25774); assay: biochemical

**Q.** How did the IC50 turn out when CS(=O)(=O)N1CCc2c(c(-c3ccc(C(F)(F)F)c(SCCN4CCOCC4)c3)nn2CC(O)CN2CCC(C(N)=O)CC2)C1 (stereo not shown) [Example 555, 1-{2-Hydroxy-3-[5-(methylsulfonyl)-3-{3-[(2-morpholin-4-ylethyl)sulfanyl]-4-(trifluoromethyl)phenyl}-4,5,6,7-tetrahydro-1H-pyrazolo[4,3-c]pyridin-1-yl]propyl}piperidine-4-carboxamide] was run?
**A.** 0.24 µM

**Q.** CC(=O)N1CCN(CCCn2nc(-c3ccc(C(F)(F)F)c(SCC(=O)N4CCOCC4)c3)c3c2CCN(S(C)(=O)=O)C3)CC1 [Example 112, 2-(5-{1-[3-(4-Acetyl-piperazin-1-yl)-propyl]-5-methanesulfonyl-4,5,6,7-tetrahydro-1H-pyrazolo[4,3-c]pyridin-3-yl}-2-trifluoromethyl-phenylsulfanyl)-1-morpholin-4-yl-ethanone] was tested. Which IC50 did it give?
**A.** 0.32 µM

**Q.** Which IC50 does the source give for O[C@@H](CN1CCN(c2ccccc2F)CC1)Cn1nc(-c2ccc(C(F)(F)F)c(SCCN3CCC(F)CC3)c2)c2c1CCNC2 [Example 498, (2S)-1-[4-(2-Fluorophenyl)piperazin-1-yl]-3-{3-[3-{[2-(4-fluoropiperidin-1-yl)ethyl]sulfanyl}-4-(trifluoromethyl)phenyl]-4,5,6,7-tetrahydro-1H-pyrazolo[4,3-c]pyridin-1-yl}propan-2-ol] here?
**A.** 0.4 µM

**Q.** For O=C(CSc1cc(-c2nn(CC(O)CN3CCC4CCCCC4C3)c3c2CNCC3)ccc1C(F)(F)F)N1CCCC1 (stereo not shown) [Example 316, 1-(Octahydroisoquinolin-2(1H)-yl)-3-(3-{3-[(2-oxo-2-pyrrolidin-1-ylethyl)sulfanyl]-4-(trifluoromethyl)phenyl}-4,5,6,7-tetrahydro-1H-pyrazolo[4,3-c]pyridin-1-yl)propan-2-ol], which IC50 is on record?
**A.** 2.54 µM

**Q.** Which IC50 does the source give for CS(=O)(=O)N1CCc2c(c(-c3ccc(C(F)(F)F)c(SCC(=O)NC4CCCC4)c3)nn2CC(O)CN2CCC(c3n[nH]c(=O)[nH]3)CC2)C1 (stereo not shown) [Example 744, N-Cyclopentyl-2-({5-[1-{2-hydroxy-3-[4-(5-oxo-4,5-dihydro-1H-1,2,4-triazol-3-yl)piperidin-1-yl]propyl}-5-(methylsulfonyl)-4,5,6,7-tetrahydro-1H-pyrazolo[4,3-c]pyridin-3-yl]-2-(trifluoromethyl)phenyl}sulfanyl)acetamide] here?
**A.** 1.79 µM

**Q.** CS(=O)(=O)N1CCc2c(c(-c3ccc(C(F)(F)F)c(SCCN4CCCCC4)c3)nn2CC(O)CN2CCC(C(=O)N3CCCC3)CC2)C1 (stereo not shown) [Example 745, 1-[5-(Methylsulfonyl)-3-{3-[(2-piperidin-1-ylethyl)sulfanyl]-4-(trifluoromethyl)phenyl}-4,5,6,7-tetrahydro-1H-pyrazolo[4,3-c]pyridin-1-yl]-3-[4-(pyrrolidin-1-ylcarbonyl)piperidin-1-yl]propan-2-ol] was tested. Which IC50 did it give?
**A.** 0.09 µM

**Q.** Which IC50 does the source give for CC(=O)NC1CCN(CCCn2nc(-c3ccc(C(F)(F)F)c(SCCO)c3)c3c2CCN(S(C)(=O)=O)C3)CC1 [Example 2, N-[1-(3-{3-[3-(2-Hydroxy-ethylsulfanyl)-4-trifluoromethyl-phenyl]-5-methanesulfonyl-4,5,6,7-tetrahydro-pyrazolo[4,3-c]pyridin-1-yl}-propyl)-piperidin-4-yl]-acetamide] here?
**A.** 0.28 µM

**Q.** Which IC50 does the source give for CS(=O)(=O)N1CCc2c(c(-c3ccc(Cl)c(SCc4ccc(F)cc4)c3)nn2CCCN2CCOCC2)C1 [Example 136, 3-[4-Chloro-3-(4-fluoro-benzylsulfanyl)-phenyl]-5-methanesulfonyl-1-(3-morpholin-4-yl-propyl)-4,5,6,7-tetrahydro-1H-pyrazolo[4,3-c]pyridine] here?
**A.** 0.68 µM

**Q.** For CC(=O)N1CCN(CC(O)Cn2nc(-c3ccc(C(F)(F)F)c(SCCN4CCCC4)c3)c3c2CCN(S(C)(=O)=O)C3)CC1 (stereo not shown) [Example 449, 1-(4-Acetylpiperazin-1-yl)-3-[5-(methylsulfonyl)-3-{3-[(2-pyrrolidin-1-ylethyl)sulfanyl]-4-(trifluoromethyl)phenyl}-4,5,6,7-tetrahydro-1H-pyrazolo[4,3-c]pyridin-1-yl]propan-2-ol], which IC50 is on record?
**A.** 1.11 µM

**Q.** OC1CCCN(CCSc2cc(-c3nn(CC(O)CN4CCCCC4)c4c3CNCC4)ccc2C(F)(F)F)C1 (stereo not shown) [Example 295, 1-[2-({5-[1-(2-Hydroxy-3-piperidin-1-ylpropyl)-4,5,6,7-tetrahydro-1H-pyrazolo[4,3-c]pyridin-3-yl]-2-(trifluoromethyl)phenyl}sulfanyl)ethyl]piperidin-3-ol] was tested. Which IC50 did it give?
**A.** > 20 µM

**Q.** For CS(=O)(=O)N1CCc2c(c(-c3ccc(C(F)(F)F)c(SCCN4CCCC(CO)C4)c3)nn2CC(O)CN2CCC(N3CCOCC3)CC2)C1 (stereo not shown) [Example 819, 1-{3-[3-({2-[3-(Hydroxymethyl)piperidin-1-yl]ethyl}sulfanyl)-4-(trifluoromethyl)phenyl]-5-(methylsulfonyl)-4,5,6,7-tetrahydro-1H-pyrazolo[4,3-c]pyridin-1-yl}-3-(4-morpholin-4-ylpiperidin-1-yl)propan-2-ol], which IC50 is on record?
**A.** 0.34 µM

**Q.** For CC(=O)NC1CCN(C[C@H](O)Cn2nc(-c3ccc(C(F)(F)F)c(SCCN4CCCC4)c3)c3c2CCN(C(C)=O)C3)CC1 [Example 363, N-{1-[(2S)-3-(5-Acetyl-3-{3-[(2-pyrrolidin-1-ylethyl)sulfanyl]-4-(trifluoromethyl)phenyl}-4,5,6,7-tetrahydro-1H-pyrazolo[4,3-c]pyridin-1-yl)-2-hydroxypropyl]piperidin-4-yl}acetamide], which IC50 is on record?
**A.** 0.16 µM

**Q.** COc1ccccc1C1CCN(C[C@H](O)Cn2nc(-c3ccc(C(F)(F)F)c(SCCN4CCC(F)CC4)c3)c3c2CCNC3)CC1 [Example 563, (2S)-1-{3-[3-{[2-(4-Fluoropiperidin-1-yl)ethyl]sulfanyl}-4-(trifluoromethyl)phenyl]-4,5,6,7-tetrahydro-1H-pyrazolo[4,3-c]pyridin-1-yl}-3-{4-[2-(methyloxy)phenyl]piperidin-1-yl}propan-2-ol] was tested. Which IC50 did it give?
**A.** 0.15 µM

**Q.** With COc1ccc(N2CCN(CC(O)Cn3nc(-c4ccc(C(F)(F)F)c(SCCN5CCC(F)(F)C5)c4)c4c3CCNC4)CC2)cc1 (stereo not shown) [Example 583, 1-{3-[3-{[2-(3,3-Difluoropyrrolidin-1-yl)ethyl]sulfanyl}-4-(trifluoromethyl)phenyl]-4,5,6,7-tetrahydro-1H-pyrazolo[4,3-c]pyridin-1-yl}-3-{4-[4-(methyloxy)phenyl]piperazin-1-yl}propan-2-ol] as the compound, how does the IC50 read?
**A.** 0.78 µM

**Q.** How did the IC50 turn out when CC(=O)NC1CCN(C[C@H](O)Cn2nc(-c3ccc(C(F)(F)F)c(SCCN4CCCC4)c3)c3c2CCN(C(=O)C(N)=O)C3)CC1 [Example 249, 2-(1-{(2S)-3-[4-(Acetylamino)piperidin-1-yl]-2-hydroxypropyl}-3-{3-[(2-pyrrolidin-1-ylethyl)sulfanyl]-4-(trifluoromethyl)phenyl}-1,4,6,7-tetrahydro-5H-pyrazolo[4,3-c]pyridin-5-yl)-2-oxoacetamide] was run?
**A.** 0.05 µM

**Q.** CC1CCCN(C(=O)CSc2cc(-c3nn(CCCN4CCC(N5CCCC5=O)CC4)c4c3CN(S(C)(=O)=O)CC4)ccc2C(F)(F)F)C1 (stereo not shown) [Example 79, 1-{1-[3-(5-Methanesulfonyl-3-{3-[2-(3-methyl-piperidin-1-yl)-2-oxo-ethylsulfanyl]-4-trifluoromethyl-phenyl}-4,5,6,7-tetrahydro-pyrazolo[4,3-c]pyridin-1-yl)-propyl]-piperidin-4-yl}-pyrrolidin-2-one] was tested. Which IC50 did it give?
**A.** 0.18 µM

**Q.** O=C(C1CCN(CC(O)Cn2nc(-c3ccc(C(F)(F)F)c(SCCN4CCCCC4)c3)c3c2CCNC3)CC1)N1CCOCC1 (stereo not shown) [Example 496, 1-[4-(Morpholin-4-ylcarbonyl)piperidin-1-yl]-3-(3-{3-[(2-piperidin-1-ylethyl)sulfanyl]-4-(trifluoromethyl)phenyl}-4,5,6,7-tetrahydro-1H-pyrazolo[4,3-c]pyridin-1-yl)propan-2-ol] was tested. Which IC50 did it give?
**A.** 3.56 µM

**Q.** Which IC50 does the source give for CC1CCN(CCSc2cc(-c3nn(C[C@@H](O)CN4CCC(NC(=O)C(C)(C)O)CC4)c4c3CN(S(C)(=O)=O)CC4)ccc2C(F)(F)F)CC1 [Example 818, 2-Hydroxy-N-{1-[(2S)-2-hydroxy-3-{3-[3-{[2-(4-methylpiperidin-1-yl)ethyl]sulfanyl}-4-(trifluoromethyl)phenyl]-5-(methylsulfonyl)-4,5,6,7-tetrahydro-1H-pyrazolo[4,3-c]pyridin-1-yl}propyl]piperidin-4-yl}-2-methylpropanamide] here?
**A.** 0.045 µM

**Q.** CCCS(=O)(=O)N1CCc2c(c(-c3ccc(C(F)(F)F)c(SCCN4CCC(F)CC4)c3)nn2C[C@@H](O)CN2CCCCC2)C1 [Example 557, (2S)-1-{3-[3-{[2-(4-Fluoropiperidin-1-yl)ethyl]sulfanyl}-4-(trifluoromethyl)phenyl]-5-(propylsulfonyl)-4,5,6,7-tetrahydro-1H-pyrazolo[4,3-c]pyridin-1-yl}-3-piperidin-1-ylpropan-2-ol] was tested. Which IC50 did it give?
**A.** 0.3 µM

**Q.** Which IC50 does the source give for CC(C)(C)OC(=O)NCCCC(=O)NCCSc1cc(-c2nn(CC(O)CN3CCC(N4CCCC4=O)CC3)c3c2CN(S(C)(=O)=O)CC3)ccc1C(F)(F)F (stereo not shown) [Example 124, (3-{2-[5-(1-{2-Hydroxy-3-[4-(2-oxo-pyrrolidin-1-yl)-piperidin-1-yl]-propyl}-5-methanesulfonyl-4,5,6,7-tetrahydro-1H-pyrazolo[4,3-c]pyridin-3-yl)-2-trifluoromethyl-phenylsulfanyl]-ethylcarbamoyl}-propyl)-carbamic acid tert-butyl ester] here?
**A.** 0.23 µM

**Q.** For CS(=O)(=O)N1CCc2c(c(-c3ccc(C(F)(F)F)c(SCCN4CCOCC4)c3)nn2CC(O)CN2CCN(C3CC3)CC2)C1 (stereo not shown) [Example 542, 1-(4-Cyclopropylpiperazin-1-yl)-3-[5-(methylsulfonyl)-3-{3-[(2-morpholin-4-ylethyl)sulfanyl]-4-(trifluoromethyl)phenyl}-4,5,6,7-tetrahydro-1H-pyrazolo[4,3-c]pyridin-1-yl]propan-2-ol], which IC50 is on record?
**A.** 0.61 µM

**Q.** With CS(=O)(=O)N1CCc2c(c(-c3ccc(C(F)(F)F)c(SCCN4CCC(N5CCCC5)CC4)c3)nn2CC(O)CN2CCC(c3ccccn3)CC2)C1 (stereo not shown) [Example 185, 1-{5-(Methylsulfonyl)-3-[3-{[2-(4-pyrrolidin-1-ylpiperidin-1-yl)ethyl]sulfanyl}-4-(trifluoromethyl)phenyl]-4,5,6,7-tetrahydro-1H-pyrazolo[4,3-c]pyridin-1-yl}-3-(4-pyridin-2-ylpiperidin-1-yl)propan-2-ol] as the compound, how does the IC50 read?
**A.** 0.09 µM
